Literature values in patent US11213486B2, “Drug-containing fat emulsion and nethod for producing same” (Techno Guard Co. Ltd., priority 2017, dated 2022).

Settings: of the drug contained in the emulsion

In the case of dexamethasone palmitate, the “Solubility in water (expression in Japanese Pharmacopoeia)” value is listed as “Practically insoluble”.
